Experimental data published in publication PMC6442678 (Journal of medicinal chemistry, 2018).

Experiment: Ex vivo quantitation of tissue Mn content by ICP-MS
Assay type: in vivo
Conditions: 24 h after injection of 0.1 mmol/kg, mice

**Q.** For Mn-PyC3A-3-OBn [Complex 10], which “Mn levels / elimination 24 h after injection” value is on record?
**A.** wholly eliminated
